{"sequences": {"note": "Chains of the proteins cited; added tags and fusions are not shown. Residues count along the entry.", "UniProt P14867, 28-456": "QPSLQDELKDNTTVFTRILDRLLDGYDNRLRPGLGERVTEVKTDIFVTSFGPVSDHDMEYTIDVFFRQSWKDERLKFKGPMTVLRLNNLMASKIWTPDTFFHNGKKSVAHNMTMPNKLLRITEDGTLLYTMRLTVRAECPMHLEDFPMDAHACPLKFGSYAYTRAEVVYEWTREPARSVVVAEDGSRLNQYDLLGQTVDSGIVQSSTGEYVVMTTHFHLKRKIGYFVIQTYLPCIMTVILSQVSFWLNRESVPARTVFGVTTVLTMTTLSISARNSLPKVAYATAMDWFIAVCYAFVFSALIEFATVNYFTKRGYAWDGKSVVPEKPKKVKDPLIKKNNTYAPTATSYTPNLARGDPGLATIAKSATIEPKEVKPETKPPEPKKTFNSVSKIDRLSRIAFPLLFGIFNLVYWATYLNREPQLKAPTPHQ", "UniProt P18507, 40-475": "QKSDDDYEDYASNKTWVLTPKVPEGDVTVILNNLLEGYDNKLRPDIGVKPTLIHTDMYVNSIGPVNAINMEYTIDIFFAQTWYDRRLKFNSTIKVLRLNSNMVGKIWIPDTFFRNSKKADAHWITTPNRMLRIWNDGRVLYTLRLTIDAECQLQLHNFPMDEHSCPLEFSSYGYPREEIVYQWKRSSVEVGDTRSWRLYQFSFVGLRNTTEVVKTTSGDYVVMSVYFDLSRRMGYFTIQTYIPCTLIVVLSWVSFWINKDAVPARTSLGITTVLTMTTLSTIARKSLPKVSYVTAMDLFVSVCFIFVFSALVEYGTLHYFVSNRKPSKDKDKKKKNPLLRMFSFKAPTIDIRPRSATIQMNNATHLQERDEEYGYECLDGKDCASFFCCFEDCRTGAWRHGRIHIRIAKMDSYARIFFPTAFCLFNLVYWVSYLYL", "UniProt P47870, 25-512 limits assumed": "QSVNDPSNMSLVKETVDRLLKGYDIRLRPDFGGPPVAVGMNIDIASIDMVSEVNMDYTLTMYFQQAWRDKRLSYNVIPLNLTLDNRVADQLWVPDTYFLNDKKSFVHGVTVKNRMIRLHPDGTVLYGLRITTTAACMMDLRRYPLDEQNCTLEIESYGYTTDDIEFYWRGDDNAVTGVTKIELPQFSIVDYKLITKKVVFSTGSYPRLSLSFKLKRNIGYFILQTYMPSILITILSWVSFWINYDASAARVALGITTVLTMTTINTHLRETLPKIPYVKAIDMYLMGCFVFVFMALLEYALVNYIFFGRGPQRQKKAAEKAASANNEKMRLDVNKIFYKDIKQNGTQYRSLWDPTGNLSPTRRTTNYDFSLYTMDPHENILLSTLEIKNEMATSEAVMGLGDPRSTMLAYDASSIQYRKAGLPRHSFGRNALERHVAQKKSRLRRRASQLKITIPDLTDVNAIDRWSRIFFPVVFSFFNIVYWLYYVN"}, "source": "patent US9750747B2", "about": "“Treatments involving eslicarbazepine acetate or eslicarbazepine” (BAIL-PORTELA & CA, S.A., priority 2011, dated 2017)", "target": "T1, α1β2γ2 GABA receptors (Homo sapiens, UniProt P14867+P18507+P47870)", "T1 construct": "host or cells: Ltk cells, expression induced with dexamethasone", "test": "whole-cell patch-clamp, sub-maximal GABA inward currents in stably transfected Ltk cells", "type": "cell-based", "settings": "Table 2", "method": "Carbamazepine (CBZ) aggravates absence seizures in ‘generalized absence epilepsy rats from. Strasbourg’. One putative mechanism for the aggravation is through its reported potentiation of GABAA currents. A study was carried out to determine the effect of eslicarbazepine, R-licarbazepine and carbamazepine on sub-maximal GABA currents in Ltk cells stably expressing α1β2γ2, α2β2γ2, α3β2γ2 or α5β2γ2 GABA-receptors. The whole-cell patch-clamp technique was used to investigate the effects of the test compounds on GABAA receptors.\nUsed Ltk cells were stably transfected with recombinant GABAA cDNAs: α1β2γ2, α2β2γ2, α3β2γ2 or α5β2γ2 (B'SYS GmbH, Switzerland). Cells were maintained in a humidified atmosphere (95% relative humidity) with 5% CO2 and were grown in D-MEM/F-12 (1×, liquid, with GlutaMax 1) supplemented with 9% foetal bovine serum and 0.9% Penicillin/Streptomycin solution (Gibco BRL). For the electrophysiological experiments cells were cultivated, at a density that enabled single cells to be measured, in medium without antibiotics or antimycotics. Cells were tested 24-48 hours following induction of transgene expression with dexamethasone.\nCells were continuously perfused with bath solution (NaCl 137 mM, KCl 4 mM, CaCl2 1.8 mM, MgCl2 1 mM, D-Glucose 10 mM HEPES 10 mM, pH 7.4). The whole-cell patch clamp recordings from transfected Ltk cells (voltage-clamped at a holding potential of −80 mV) were made using a EPC-7, HEKA Electronics amplifier. GABA inward-currents were measured upon application of 1 or 2 μM GABA to patch-clamped cells (at an EC5). […]\nSigmaPlot 8.02 was used to calculate the means±SEM of relative peak′current blockade for each test item. Analysis of Variance (ANOVA) with post test multisample comparison (Dunnett) was conducted with GraphPad Prism 4 Software."}
{"smiles": "CN1CCc2cc3c(cc2[C@H]1[C@@H]1OC(=O)c2c1ccc1c2OCO1)OCO3", "note": "[Bicucculline]", "values": [{"measurement": "Current stimulation (%) α1β2γ2", "setting": "0.1 μM with GABA at EC5, Ltk cells", "result": "70.48 ± 3.19", "unit": "%"}, {"measurement": "Current stimulation (%) α1β2γ2", "setting": "1 μM with GABA at EC5, Ltk cells", "result": "24.28 ± 1.70", "unit": "%"}, {"measurement": "Current stimulation (%) α1β2γ2", "setting": "3 μM with GABA at EC5, Ltk cells", "result": "8.23 ± 1.01", "unit": "%"}, {"measurement": "Current stimulation (%) α1β2γ2", "setting": "30 μM with GABA at EC5, Ltk cells", "result": "0.35 ± 0.49", "unit": "%"}]}
